Results as given in ChEMBL document CHEMBL1201862, “PubChem BioAssay data set” (2004).
The list shows a part of the results, in another mix than the full data. Only a part of the results of these assays is listed, not drawn at random. Activity calls are given as the source filed them. No cut-off for these calls is given here.

target: T1, DNA polymerase kappa (Homo sapiens) (UniProt Q9UBT6); experiment: qHTS for Inhibitors of Polymerase Kappa. [Related pubchem assays (depositor defined):AID588638]; format: functional
T1 sequence (whole entry): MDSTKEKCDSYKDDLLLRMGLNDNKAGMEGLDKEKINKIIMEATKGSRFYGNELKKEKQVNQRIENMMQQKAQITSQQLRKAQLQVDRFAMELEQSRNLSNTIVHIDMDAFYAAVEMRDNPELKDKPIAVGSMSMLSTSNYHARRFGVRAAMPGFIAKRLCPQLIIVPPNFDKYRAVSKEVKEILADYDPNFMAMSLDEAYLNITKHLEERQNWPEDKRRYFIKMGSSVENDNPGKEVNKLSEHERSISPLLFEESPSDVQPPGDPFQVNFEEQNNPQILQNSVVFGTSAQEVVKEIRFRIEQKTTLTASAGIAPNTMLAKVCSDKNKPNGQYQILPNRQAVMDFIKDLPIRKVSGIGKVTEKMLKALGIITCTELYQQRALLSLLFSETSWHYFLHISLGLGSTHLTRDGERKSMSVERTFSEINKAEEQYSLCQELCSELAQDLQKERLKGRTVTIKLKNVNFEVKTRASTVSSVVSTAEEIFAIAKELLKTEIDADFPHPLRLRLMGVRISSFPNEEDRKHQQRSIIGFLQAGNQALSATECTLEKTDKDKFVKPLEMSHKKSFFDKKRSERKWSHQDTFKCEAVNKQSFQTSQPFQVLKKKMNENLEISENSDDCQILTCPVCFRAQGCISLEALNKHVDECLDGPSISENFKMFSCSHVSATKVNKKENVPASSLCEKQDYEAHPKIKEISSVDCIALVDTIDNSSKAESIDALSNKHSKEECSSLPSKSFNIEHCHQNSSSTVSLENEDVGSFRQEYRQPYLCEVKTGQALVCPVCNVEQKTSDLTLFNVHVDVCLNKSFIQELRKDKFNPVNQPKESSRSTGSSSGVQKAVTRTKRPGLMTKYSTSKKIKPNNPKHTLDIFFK

| SMILES | Potency |
| --- | --- |
| O=C(O)C(O)c1ccccc1 (configuration not stated) | inactive |
| c1ccc(CNCCNCc2ccccc2)cc1 | inactive |
